{"sequences": {"note": "By UniProt entry, the sequences of proteins in these tests, tags left out. Residues count along the entry.", "UniProt Q9Y275, 82-285": "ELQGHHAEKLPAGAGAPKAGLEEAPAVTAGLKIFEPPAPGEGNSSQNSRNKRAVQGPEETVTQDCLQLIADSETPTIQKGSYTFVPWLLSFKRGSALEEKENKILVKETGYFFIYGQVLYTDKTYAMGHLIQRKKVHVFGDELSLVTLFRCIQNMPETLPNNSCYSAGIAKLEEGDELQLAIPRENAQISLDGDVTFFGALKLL"}, "source": "patent US20050163775A1", "about": "“Combination therapy for B cell disorders” (Genentech, Inc., priority 2003, published 2005)", "molecules": {"B1": {"name": "ECFDLLVRHWVPCGLLK (blys0095) (peptide)", "peptide": "ECFDLLVRHWVPCGLLK", "modifications": "end groups not printed for this peptide; synthesized as described above (Rink amide resin, N-terminal acylation, oxidized)", "notes": "Unconjugated peptide"}, "B2": {"name": "blys0095-2kPEG conjugate (peptide)", "peptide": "ECFDLLVRHWVPCGLLK", "modifications": "linear 2K PEG-NHS (2KPEG-SPA) coupled to a primary amine (lysine or N-terminus); PEG:peptide approximately 1:1"}, "B3": {"name": "blys0095-5 kPEG conjugate (peptide)", "peptide": "ECFDLLVRHWVPCGLLK", "modifications": "linear 5K PEG-NHS (5KPEG-SPA) coupled to a primary amine (lysine or N-terminus); PEG:peptide approximately 1:1"}, "B4": {"name": "blys0095-20 kPEG conjugate (peptide)", "peptide": "ECFDLLVRHWVPCGLLK", "modifications": "linear 20K PEG-NHS (20KPEG-SPA) coupled to a primary amine (lysine or N-terminus); PEG:peptide approximately 1:1"}, "B5": {"name": "m2H7: murine anti-human CD20 antibody, VH SEQ ID NO: 23, VL SEQ ID NO: 24 (antibody, listed as Mus musculus, V domains shown)", "VH": "QAYLQQSGAELVRPGASVKMSCKASGYTFTSYNMHWVKQTPRQGLEWIGAIYPGNGDTSYNQKFKGKATLTVDKSSSTAYMQLSSLTSEDSAVYFCARVVYYSNSYWYFDVWGTGTTVTVS", "VL": "QIVLSQSPAILSASPGEKVTMTCRASSSVSYMHWYQQKPGSSPKPWIYAPSNLASGVPARFSGSGSGTSYSLTISRVEAEDAATYYCQQWSFNPPTFGAGTKLELK"}}, "key": {"[1]": {"target": "T1, human BAFF (residues 82-285) (human, UniProt Q9Y275 82-285)", "T1 construct": "Coated on plates in the ELISAs; also used biotinylated or free in solution for phage sorting; also called BAFF82-285; BLyS82-285", "experiment": "competitive displacement ELISA on BLyS-coated plates, biotinylated miniBR3 as tracer", "experimental": "(§1) The plate was washed with PBS and blocked with 1% skim milk in PBS. […] After washing with PBS/0.05% Tween, 100 μl well of each dilution was transferred and incubated for 1 hour at room temperature. The plate was washed with PBS/0.05% Tween and incubated 15 min with 100 μl/well of 0.1 U/ml Streptavidin-POD (Boehringer Mannheim) in PBS/0.05% Tween. After washing with PBS/0.05% Tween followed by PBS, the plate was incubated 5 min with 100 μl PBS substrate solution containing 0.8 mg/ml OPD (Sigma) and 0.01% H₂O₂. The reaction was quenched with 100 μl/well 1M H₃PO₄ and the plate read at 490 nm. […] The equation is: y=ml+(m2−m1)/(1+m0/m4)\\hat{ }m3, where m1 is the absorbance at infinite competitor concentration, m2 is the absorbance for no added competitor, m3 is the slope of the curve near the midpoint, m4 is the IC50 value and m0 is the concentration of competitor, peptide in this case."}, "[2]": {"target": "T1, human BAFF (residues 82-285)", "experiment": "competitive displacement ELISA on BLyS-coated plates, biotinylated miniBR3 as tracer; separate experiment", "experimental": "as §1"}, "[3]": {"experiment": "Expected serum IgG and IgM in responding human patients", "format": "in vivo", "details": "human patients responding to treatment"}, "[4]": {"system": "B cells", "experiment": "B cell depletion and recovery after anti-hCD20 mAb in human CD20 BAC transgenic mice (FACS)", "format": "in vivo, mouse"}, "[5]": {"system": "B cells", "experiment": "B cell depletion by anti-CD20 mAb, BR3-Fc or combination in hCD20+ mice (FIG. 29, 30)", "format": "in vivo, mouse", "experimental": "FACS analysis was performed on of spleen, blood, lymph node B cells (gated on CD21^+CD23^+). The combination therapy clearly produced a synergistic effect in depleting B cells, and especially marginal zone, T2 and follicular B cells in the spleen.\n(§2) Mice were treated with control IgG2a, BAFFR/BR3-Fc (100 μg/mouse IP daily for 12 days), anti-hCD20 mAb (100 μg/mouse IP on day 9) or the combination of BAFFR/BR3-Fc and anti-hCD20 mAb (same dosing as single treatment groups). B220^+ splenocytes were isolated on day 13 and stained for CD21 and CD23. N=5 mice/group.\nIn the Experimental Examples, the BR3-Fc or BAFFR/BR3-Fc used is hBR3-Fc of SEQ ID. NO. 2. For the experiment shown in FIG. 29, FVB mice expressing a bacterial artificial chromosome encoding human CD20 (designated as hCD20^+ mice) were treated with intraperitoneal injections of anti-CD20 mAb (single injection of 100 micrograms on Day 9), BR3-Fc (100 micrograms every other day from Days1 through 12), or the combination of anti-CD20 mAb and BR3-Fc. Each group consisted of 4 mice. Two days following the last injection, the mice were sacrificed and analyzed for hCD20^+ B cells. FACS analysis of spleen, blood, lymph node and Peyer's Patches were analyzed for B cell markers (CD21^+CD23^+).\nas §2, with “For the experiment shown in FIG. 30, hCD20 Tg+ mice” for “Mice”, “mice/group. […] The mice were treated with single doses of 0.1 mg control IgG2a, BAFF/BR3-Fc or anti-hCD20 mAb. Splenocytes were analyzed on day 4. N=5 mice/group.” for “mice/group.”"}, "[6]": {"system": "T-independent B cell response", "experiment": "T-independent immune response to Streptococcus pneumoniae IV after B cell depletion", "format": "in vivo, mouse", "details": "mAb day 0, S. pneumoniae IV i.v. day 7, response day 11", "experimental": "On the 3 panels at the right, the spleen cells were stained for the streptococcus polysaccharide-phosphatidyl choline (the TI antigen). CD138 is a marker for plasma cells.\nNext, it was determined whether upon B cell depletion, the mice were able to develop T independent immune response. Mice were treated with m2H7 or isotpype control antibody mIgG2a at day 0. At days 3-7, B cell depletion has occurred. At day 7, the mice were injected i.v. with Streptococcus pneumoniae IV to induce a response to the polysaccharide. A T cell independent response was mounted on day 11."}, "[7]": {"system": "splenic germinal center B cells", "experiment": "Splenic germinal center B cells after SRBC immunization and single anti-CD20 mAb injection (FACS, PNA)", "format": "in vivo, mouse", "details": "SRBC immunized, mAb at day 8, spleen analyzed day 12"}}}
{"molecule": "B1", "values": [{"measurement": "IC50", "setting": "[1]", "value": 19, "unit": "nM"}]}
{"molecule": "B2", "values": [{"measurement": "IC50", "setting": "[1]", "value": 43, "unit": "nM"}]}
{"molecule": "B3", "values": [{"measurement": "IC50", "setting": "[1]", "value": 51, "unit": "nM"}]}
{"molecule": "B4", "values": [{"measurement": "IC50", "setting": "[2]", "value": 99, "unit": "nM"}]}
{"molecule": "B5", "values": [{"measurement": "serum IgG and IgM levels", "setting": "[3]", "value": "reduction in serum IgG and IgM levels"}, {"measurement": "T2/follicular B cells", "setting": "[4]; 100 ug on day 1 and 100 ug on day 3", "value": "depleted"}, {"measurement": "germinal center B cells from the Peyer's patches", "setting": "[4]; 100 ug on day 1 and 100 ug on day 3, cells bound with mAb", "value": "resistant to killing"}, {"measurement": "B cells in the peripheral blood", "setting": "[4]; day 6 post antibody treatment", "value": "not detectable"}, {"measurement": "depletion of bone marrow B cell stages (FIG. 24)", "setting": "[4]; hCD20 Tg+ mice", "value": "depletion of recirculating mature B cells, but not immature/pre-B or pro-B cells"}, {"measurement": "time to B cell depletion after treatment", "setting": "[4]; hCD20 Tg+ mice", "value": "3 to 4", "unit": "days"}, {"measurement": "depletion of B cells in blood, lymph node and spleen", "setting": "[4]; hCD20 Tg+ mice, anti-hCD20 mAb alone, 1 mg total = 50 mg/kg", "value": "depletion of B cells in peripheral blood, mature peripheral lymph node B cells, T2 and follicular B cells in the spleen"}, {"measurement": "killing of marginal zone B cells in the spleen and germinal center B cells in Peyer's patches and spleen", "setting": "[4]; hCD20 Tg+ mice, likely saturating antibody on cell surface", "value": "resistant to killing"}, {"measurement": "hCD20+ cells in peripheral blood", "setting": "[4]; week 6, upon clearance of the antibody", "value": "begin to be detected"}, {"measurement": "B cells in peripheral blood", "setting": "[4]; week 14", "value": "recovered to normal levels"}, {"measurement": "T2 and follicular B cells in the spleen", "setting": "[5]", "value": "depletes"}, {"measurement": "marginal zone B cells in the spleen", "setting": "[5]", "value": "but not marginal zone B cells"}, {"measurement": "depletion of mature circulating B cells in the blood and lymph nodes", "setting": "[5]; 100 micrograms on Day 9", "value": "> 99", "unit": "%"}, {"measurement": "B cell response from the marginal zone and germinal centers of the spleen to T-independent antigen", "setting": "[6]", "value": "did not affect the B cell response"}, {"measurement": "T2/follicular B cells", "setting": "[7]", "value": "depleted"}, {"measurement": "depletion of splenic germinal center B cells", "setting": "[7]", "value": "No depletion of germinal center B cells was detected"}, {"measurement": "marginal center B cells in the spleen", "setting": "[7]", "value": "resistant"}]}
